# Earlier results, collected in article PMC8070514, “Antibacterial and Antibiofilm Activities of Novel Antimicrobial Peptides against Multidrug-Resistant Enterotoxigenic Escherichia Coli” (International Journal of Molecular Sciences, 2021).
# Test system: ETEC adhesion to human colorectal cancer cell Caco-2
# Conditions: by blocking CFA/I cilia on ETEC; cited from earlier work
substance,measurement,value
histatin-5,Effect on ETEC adhesion to Caco-2,reduces the number of ETEC adhesion
